Measurements as given in ChEMBL document CHEMBL1126883 (1993).
pIC50: −log10 of the molar value.

By UniProt entry, the sequences of proteins in these tests, tags left out.
UniProt P61169, whole entry: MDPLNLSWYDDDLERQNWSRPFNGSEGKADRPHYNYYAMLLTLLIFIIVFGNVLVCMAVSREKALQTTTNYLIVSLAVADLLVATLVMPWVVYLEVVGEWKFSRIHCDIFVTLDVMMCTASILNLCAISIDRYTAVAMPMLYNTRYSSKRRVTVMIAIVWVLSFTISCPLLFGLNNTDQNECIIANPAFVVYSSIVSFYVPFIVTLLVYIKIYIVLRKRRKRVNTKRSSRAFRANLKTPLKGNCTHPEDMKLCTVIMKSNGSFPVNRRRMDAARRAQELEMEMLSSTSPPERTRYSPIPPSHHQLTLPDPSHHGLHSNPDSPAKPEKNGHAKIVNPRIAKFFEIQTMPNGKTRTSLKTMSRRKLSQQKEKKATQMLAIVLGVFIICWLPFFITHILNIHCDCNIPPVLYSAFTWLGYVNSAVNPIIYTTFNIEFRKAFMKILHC

Biological target: D(2) dopamine receptor (Rattus norvegicus, UniProt P61169)

## CCN1CCC[C@H]1CN1Cc2ccc(Cl)cc2C1=O
  pIC50: 5.89
